# Test results: ChEMBL document CHEMBL1201862, “PubChem BioAssay data set” (2004)
# Some of the results follow. Only a part of the results of these assays is listed, not drawn at random. Active and inactive are the calls of the source. The rule behind the calls is not given here.
# Target: Guanine nucleotide-binding protein G(s) subunit alpha isoforms short (Homo sapiens) (UniProt P63092)
# Test: qHTS for Agonist of gsp, the Etiologic Mutation Responsible for Fibrous Dysplasia/McCune-Albright Syndrome: qHTS.
# Assay type: functional
row,SMILES,Potency
1,CC[n+]1c(/C=C/N(C)c2ccccc2)oc2ccc(Cl)cc21,inactive
